# Data taken from patent US20140377171A1, “Imaging and Treatment of Neuroendocrine Tumors with Glucose - Dependent Insulinotropic Polypeptide or Analogues or Antagonists Thereof” (priority 2011, published 2014).
# Assays:
# [1] = system: normal pancreatic β-cells, hippocampus and tumoral MC-26 tissues; details: cited from earlier work
# GIP receptors = molecular target: T1, GIP receptors (Homo sapiens, UniProt P48546); experiment: In vitro GIP receptor autoradiography: displacement of 125I-GIP(1-30) in tissue sections; format: binding
# T1 construct: from tissue; host or cells: fresh frozen human tumor tissue (neuroendocrine tumors) and non-neoplastic human tissue (pancreatic islets) from surgical resection
# T1 sequence (P48546 22-466): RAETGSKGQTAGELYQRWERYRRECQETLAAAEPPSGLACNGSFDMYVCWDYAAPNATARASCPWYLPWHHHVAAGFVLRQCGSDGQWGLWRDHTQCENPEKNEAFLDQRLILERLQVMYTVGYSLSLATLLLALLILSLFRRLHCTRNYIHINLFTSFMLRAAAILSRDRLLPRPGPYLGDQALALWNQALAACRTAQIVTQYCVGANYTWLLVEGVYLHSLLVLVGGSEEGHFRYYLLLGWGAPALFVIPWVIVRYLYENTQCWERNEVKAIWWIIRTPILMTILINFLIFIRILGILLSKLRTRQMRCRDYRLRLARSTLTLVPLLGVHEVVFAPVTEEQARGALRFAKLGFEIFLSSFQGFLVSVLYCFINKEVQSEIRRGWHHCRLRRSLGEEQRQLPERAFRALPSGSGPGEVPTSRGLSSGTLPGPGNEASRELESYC
# Protocol: It was radiolabeled by the lactoperoxidase method and purified by HPLC (Anawa, Wangen, Switzerland). The two lodo-Tyrosine analogues (peak 1 iodinated at Tyr^1 and peak 2 iodinated at Tyr^10) were analyzed by LC-ESI-MS-MS (R. Brunisholz, Functional Genomics Center Zürich, ETHZ). […] After incubation, the slides were washed five times in ice-cold Tris-HCl buffer (170 mM; pH 8.2) containing 0.25% BSA and twice in ice-cold Tris-HCl buffer without BSA. The slides were dried for 15 minutes under a stream of cold air and then exposed to Kodak films Biomax MR® for seven days at 4° C. The signals on the films were analyzed in correlation with morphology using corresponding H&E stained tissue slides. The receptor density was quantitatively assessed using tissue standards for iodinated compounds (Amersham, Aylesbury, UK) and a computer-assisted image processing system (Analysis Imaging System, Interfocus, Mering, Germany).
substance,measurement,setting,value
glucose-dependent insulinotropic polypeptide [GIP],cell proliferation,[1],stimulate cell proliferation
same,displacement of 125I-GIP(1-30) binding at the receptors,GIP receptors; 100 nM unlabeled peptide (non-specific binding),completely and specifically displaces
same,displacement of 125I-GIP(1-30) (affinity),"GIP receptors; increasing concentrations of cold peptide, tumor and normal pancreatic islets, all examples",high affinity in the nanomolar concentration range
